# Reference: PubChem BioAssay AID435003 (Sanford-Burnham Center for Chemical Genomics, 2010)
# Only a part is listed here, and it is no random draw. The source made the active and inactive calls. No stated cut-off is given here; in the data, active means inhibition above about 50%; inactive means the rest.
# Test: inhibitors of induced NF-kB luciferase reporter, primary screen, TCR NF-kB activation inhibitor project, cell-based, luminescence, uHTS (AID 435003)
# Details: Jurkat, PMA/ionomycin-induced NF-kB luciferase reporter, at 4 µM, active compounds read high
row,SMILES,inhibition
1,CCC(=O)N(c1ccccc1)C1(COC)CCN(CCn2nnn(CC)c2=O)CC1,inactive: -0.0994%
2,CCC(=O)N(c1ccccc1)C1(COC)CCN(CCc2cccs2)CC1,inactive: -23.6%
